Laboratory results reported in publication PMC13070491, “Single-nucleus transcriptomics, pharmacokinetics, and pharmacodynamics of CDK4/6 and mTOR inhibition in a Phase 0/1 trial of recurrent high-grade glioma” (Neuro-Oncology, 2025).

Test system: GB126, GB239 and GB86 patient-derived cell lines
Assay: In vitro single-cell RNA sequencing, analyses across the cell lines (pseudobulk differential gene expression, GSEA, non-cycling cells)
Type: cell-based, human
Protocol: Patient-derived glioma stem cell lines (GSCs; GB126, GB86, and GB239) were established from resected GBM tumor tissue. Cell lines were genetically profiled for mutations and copy number aberrations using the IvySeq custom gene panel. […] GB239 was derived from a tumor sample included in this Phase 0 trial (tumor sample: 100-0039). All human GSCs were cultured as described previously.[12]
Following the fifth day of drug exposure, cells were harvested, cryopreserved to be processed at a later point, or immediately processed for single-cell RNA sequencing (10x Genomics, 3’ version 3). The single-cell RNA sequencing data were then processed via cellranger count and Seurat. Briefly, cells were filtered out based on the following criteria: minimum number of genes detected >500 and <10 000 with a maximum percentage of mitochondrial genes set to 10%. Statistical assessment was made between the malignant proportions of each cell state using a 2-sided paired t-test.
Descriptive statistics of the clinical data are included in Table 1. Comparisons between groups were conducted using a 2-sided or paired 2-sided t-test, where indicated. P < .05 was considered significant. Multiple hypothesis test corrections (ie, false discovery rate correction) were applied for snRNAseq pseudobulk differential expression analysis.

Compound: CN(C)C(=O)c1cc2cnc(Nc3ccc(N4CCNCC4)cn3)nc2n1C1CCCC1 [ribo]
- log2FoldChange (feature AC002074.2, ribociclib versus control (DMSO)): 1.238
- log2FoldChange (feature AC004828.2, ribociclib versus control (DMSO)): 1.204
- log2FoldChange (feature AC005019.2, ribociclib versus control (DMSO)): 1.133
- log2FoldChange (feature AC005050.3, ribociclib versus control (DMSO)): 1.098
- log2FoldChange (feature AC005209.1, ribociclib versus control (DMSO)): 1.102
- log2FoldChange (feature AC005224.2, ribociclib versus control (DMSO)): 1.098
- log2FoldChange (feature AC005692.1, ribociclib versus control (DMSO)): 1.127
- log2FoldChange (feature AC005699.1, ribociclib versus control (DMSO)): 1.02
- log2FoldChange (feature AC005899.6, ribociclib versus control (DMSO)): 1.179
- log2FoldChange (feature AC005908.3, ribociclib versus control (DMSO)): 1.126
- log2FoldChange (feature AC005999.2, ribociclib versus control (DMSO)): 1.296
- log2FoldChange (feature AC006355.2, ribociclib versus control (DMSO)): 1.109
- log2FoldChange (feature AC007009.1, ribociclib versus control (DMSO)): 1.146
- log2FoldChange (feature AC007128.2, ribociclib versus control (DMSO)): 1.193
- log2FoldChange (feature AC007422.1, ribociclib versus control (DMSO)): 1.318
- log2FoldChange (feature AC007938.3, ribociclib versus control (DMSO)): 1.227
- log2FoldChange (feature AC008056.1, ribociclib versus control (DMSO)): 1.084
- log2FoldChange (feature AC008056.3, ribociclib versus control (DMSO)): 1.241
- log2FoldChange (feature AC008067.1, ribociclib versus control (DMSO)): 1.146
- log2FoldChange (feature AC008121.2, ribociclib versus control (DMSO)): 1.023
- log2FoldChange (feature AC008592.2, ribociclib versus control (DMSO)): 1.196
- log2FoldChange (feature AC008825.1, ribociclib versus control (DMSO)): 1.249
- log2FoldChange (feature AC008883.2, ribociclib versus control (DMSO)): 1.029
- log2FoldChange (feature AC009063.2, ribociclib versus control (DMSO)): 1.028
- log2FoldChange (feature AC009495.3, ribociclib versus control (DMSO)): 1.129
- log2FoldChange (feature AC010273.3, ribociclib versus control (DMSO)): 1.0452
- log2FoldChange (feature AC010280.1, ribociclib versus control (DMSO)): 1.031
- log2FoldChange (feature AC010547.3, ribociclib versus control (DMSO)): 1.322
- log2FoldChange (feature AC012511.1, ribociclib versus control (DMSO)): 1.1953
- log2FoldChange (feature AC012613.1, ribociclib versus control (DMSO)): 1.163
- log2FoldChange (feature AC015983.2, ribociclib versus control (DMSO)): 1.126
- log2FoldChange (feature AC016716.2, ribociclib versus control (DMSO)): 1.19
- log2FoldChange (feature AC016907.2, ribociclib versus control (DMSO)): 1.038
- log2FoldChange (feature AC022469.1, ribociclib versus control (DMSO)): 1.159
- log2FoldChange (feature AC022509.5, ribociclib versus control (DMSO)): 1.028
- log2FoldChange (feature AC024145.1, ribociclib versus control (DMSO)): 1.045
- log2FoldChange (feature AC025475.1, ribociclib versus control (DMSO)): 1.104
- log2FoldChange (feature AC025917.1, ribociclib versus control (DMSO)): 1.27
- log2FoldChange (feature AC026316.5, ribociclib versus control (DMSO)): 1.134
- log2FoldChange (feature AC027013.1, ribociclib versus control (DMSO)): 1.25
- log2FoldChange (feature AC060834.2, ribociclib versus control (DMSO)): 1.022
- log2FoldChange (feature AC064805.2, ribociclib versus control (DMSO)): 1.098
- log2FoldChange (feature AC068205.1, ribociclib versus control (DMSO)): 1.1311
- log2FoldChange (feature AC068254.1, ribociclib versus control (DMSO)): 1.164
- log2FoldChange (feature AC068473.4, ribociclib versus control (DMSO)): 1.0291
- log2FoldChange (feature AC068506.1, ribociclib versus control (DMSO)): 1.25
- log2FoldChange (feature AC068989.1, ribociclib versus control (DMSO)): 1.227
- log2FoldChange (feature AC073941.1, ribociclib versus control (DMSO)): 1.2518
- log2FoldChange (feature AC078883.2, ribociclib versus control (DMSO)): 1.078
- log2FoldChange (feature AC079177.1, ribociclib versus control (DMSO)): 1.267
- log2FoldChange (feature AC087235.1, ribociclib versus control (DMSO)): 1.04
- log2FoldChange (feature AC087627.1, ribociclib versus control (DMSO)): 1.103
- log2FoldChange (feature AC087857.1, ribociclib versus control (DMSO)): 1.335
- log2FoldChange (feature AC090138.1, ribociclib versus control (DMSO)): 1.283
- log2FoldChange (feature AC090206.1, ribociclib versus control (DMSO)): 1.087
- log2FoldChange (feature AC090692.3, ribociclib versus control (DMSO)): 1.0991
- log2FoldChange (feature AC091563.1, ribociclib versus control (DMSO)): 1.024
- log2FoldChange (feature AC091849.2, ribociclib versus control (DMSO)): 1.277
- log2FoldChange (feature AC091885.2, ribociclib versus control (DMSO)): 1.158
- log2FoldChange (feature AC091917.3, ribociclib versus control (DMSO)): 1.185
- log2FoldChange (feature AC091932.1, ribociclib versus control (DMSO)): 1.201
- log2FoldChange (feature AC092118.1, ribociclib versus control (DMSO)): 1.117
- log2FoldChange (feature AC092153.1, ribociclib versus control (DMSO)): 1.043
- log2FoldChange (feature AC092159.1, ribociclib versus control (DMSO)): 1.13
- log2FoldChange (feature AC092691.1, ribociclib versus control (DMSO)): 1.137
- log2FoldChange (feature AC092834.1, ribociclib versus control (DMSO)): 1.0911
- log2FoldChange (feature AC093206.1, ribociclib versus control (DMSO)): 1.177
- log2FoldChange (feature AC093240.1, ribociclib versus control (DMSO)): 1.235
- log2FoldChange (feature AC093334.1, ribociclib versus control (DMSO)): 1.106
- log2FoldChange (feature AC093675.1, ribociclib versus control (DMSO)): 1.019
- log2FoldChange (feature AC096576.6, ribociclib versus control (DMSO)): 1.284
- log2FoldChange (feature AC096719.1, ribociclib versus control (DMSO)): 1.09
- log2FoldChange (feature AC099567.1, ribociclib versus control (DMSO)): 1.2019
- log2FoldChange (feature AC099791.3, ribociclib versus control (DMSO)): 1.273
- log2FoldChange (feature AC103740.2, ribociclib versus control (DMSO)): 1.2
- log2FoldChange (feature AC104009.1, ribociclib versus control (DMSO)): 1.092
- log2FoldChange (feature AC104072.1, ribociclib versus control (DMSO)): 1.249
- log2FoldChange (feature AC104335.2, ribociclib versus control (DMSO)): 1.08
- log2FoldChange (feature AC104623.1, ribociclib versus control (DMSO)): 1.262
- log2FoldChange (feature AC104653.2, ribociclib versus control (DMSO)): 1.259
- log2FoldChange (feature AC104827.1, ribociclib versus control (DMSO)): 1.029
- log2FoldChange (feature AC105230.1, ribociclib versus control (DMSO)): 1.058
- log2FoldChange (feature AC108472.1, ribociclib versus control (DMSO)): 1.115
- log2FoldChange (feature AC124312.5, ribociclib versus control (DMSO)): 1.047
- log2FoldChange (feature AC138356.1, ribociclib versus control (DMSO)): 1.147
- log2FoldChange (feature AC139722.1, ribociclib versus control (DMSO)): 1.183
- log2FoldChange (feature AC141930.1, ribociclib versus control (DMSO)): 1.024
- log2FoldChange (feature AC144831.1, ribociclib versus control (DMSO)): 1.255
- log2FoldChange (feature AC147651.3, ribociclib versus control (DMSO)): 1.272
- log2FoldChange (feature AC244517.12, ribociclib versus control (DMSO)): 1.086
- log2FoldChange (feature AC244517.7, ribociclib versus control (DMSO)): 1.287
- log2FoldChange (feature ACE2, ribociclib versus control (DMSO)): 1.152
- log2FoldChange (feature ACOXL-AS1, ribociclib versus control (DMSO)): 1.043
- log2FoldChange (feature ADAM21, ribociclib versus control (DMSO)): 1.04
- log2FoldChange (feature ADIRF, ribociclib versus control (DMSO)): 1.124
- log2FoldChange (feature ADRA2A, ribociclib versus control (DMSO)): 1.1825
- log2FoldChange (feature AKR1B10, ribociclib versus control (DMSO)): 1.062
- log2FoldChange (feature AKR1C1, ribociclib versus control (DMSO)): 1.264
- log2FoldChange (feature AL022318.5, ribociclib versus control (DMSO)): 1.047
